From patent US7553816B2, “p-amidobenzylethers in drug delivery agents” (priority 2001, dated 2009)

How the values were obtained:
[1] = pooled human serum, 37° C., 7 days
[2] = Stability studies in PBS pH 7.2 or acetate buffer pH 5.1 at 37° C., HPLC; format: physicochemical
Experimental: The other samples were injected directly into the HPLC.

Row | Substance | Stability Human serum, loss of starting material [1] [% loss 7 d] | Stability in aqueous environments (in words) [2]
1 | CBZ-VAL-CIT-PAB-O-(N-AC)-NOR [Compound 5] | 0 | –
2 | CBZ-VAL-CIT-PAB-OCO-(1S, 2R)-(N-ACETYL)NOREPHEDRINE [Compound 10] | – | unstable
